Target: T1, nuclear homogenates of human pancreatic tumor cells (PANC-1) (Homo sapiens, UniProt Q9NZT2)
T1 construct: host or cells: PANC-1; nuclear (P1) homogenates, and P2, P3 and S3 fractions in the fractionation study
T1 sequence (Q9NZT2 1-677): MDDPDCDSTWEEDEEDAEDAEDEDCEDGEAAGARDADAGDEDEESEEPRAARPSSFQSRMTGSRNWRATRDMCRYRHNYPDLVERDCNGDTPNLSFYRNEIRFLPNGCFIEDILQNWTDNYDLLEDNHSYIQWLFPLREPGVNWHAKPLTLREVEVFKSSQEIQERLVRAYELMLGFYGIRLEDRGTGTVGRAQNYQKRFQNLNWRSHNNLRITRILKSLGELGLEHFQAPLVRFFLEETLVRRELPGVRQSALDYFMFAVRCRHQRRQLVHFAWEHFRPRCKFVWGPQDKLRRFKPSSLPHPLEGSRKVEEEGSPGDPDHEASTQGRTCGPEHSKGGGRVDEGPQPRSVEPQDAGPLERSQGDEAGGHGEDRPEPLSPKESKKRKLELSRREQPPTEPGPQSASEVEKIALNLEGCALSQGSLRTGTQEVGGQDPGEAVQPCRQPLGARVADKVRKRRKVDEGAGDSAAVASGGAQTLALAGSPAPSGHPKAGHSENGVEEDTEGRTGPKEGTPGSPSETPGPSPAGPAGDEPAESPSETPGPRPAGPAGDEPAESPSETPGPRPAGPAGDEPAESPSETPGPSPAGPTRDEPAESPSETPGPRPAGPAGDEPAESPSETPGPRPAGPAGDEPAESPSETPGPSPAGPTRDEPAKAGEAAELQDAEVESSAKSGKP
Assay: Competition for binding of [^3H]-[Met^5]-enkephalin in PANC-1 nuclear homogenates
Conditions: competition with [^3H]-[Met^5]-enkephalin; at least 2 independent assays

Substance: Dynorphin A1-8
- IC50/Kd: >10^−4

From patent publication US7122651B1, “Nucleic acid molecules encoding opioid growth factor receptors” (priority 1998, dated 2006)
